Paper PMC2821871 (Biochemistry, 2010)

Molecular target: LA3 of LDLR (human, UniProt P01130 109-147)

Kd: > 5 mM
Binder: TEELRVRLASHLRKLRKRLL [Ub-ApoE(130-149)]
